{
  "sequences": {"note": "The chains behind the UniProt entries cited, without tags or fusion partners.", "UniProt O35433, whole entry": "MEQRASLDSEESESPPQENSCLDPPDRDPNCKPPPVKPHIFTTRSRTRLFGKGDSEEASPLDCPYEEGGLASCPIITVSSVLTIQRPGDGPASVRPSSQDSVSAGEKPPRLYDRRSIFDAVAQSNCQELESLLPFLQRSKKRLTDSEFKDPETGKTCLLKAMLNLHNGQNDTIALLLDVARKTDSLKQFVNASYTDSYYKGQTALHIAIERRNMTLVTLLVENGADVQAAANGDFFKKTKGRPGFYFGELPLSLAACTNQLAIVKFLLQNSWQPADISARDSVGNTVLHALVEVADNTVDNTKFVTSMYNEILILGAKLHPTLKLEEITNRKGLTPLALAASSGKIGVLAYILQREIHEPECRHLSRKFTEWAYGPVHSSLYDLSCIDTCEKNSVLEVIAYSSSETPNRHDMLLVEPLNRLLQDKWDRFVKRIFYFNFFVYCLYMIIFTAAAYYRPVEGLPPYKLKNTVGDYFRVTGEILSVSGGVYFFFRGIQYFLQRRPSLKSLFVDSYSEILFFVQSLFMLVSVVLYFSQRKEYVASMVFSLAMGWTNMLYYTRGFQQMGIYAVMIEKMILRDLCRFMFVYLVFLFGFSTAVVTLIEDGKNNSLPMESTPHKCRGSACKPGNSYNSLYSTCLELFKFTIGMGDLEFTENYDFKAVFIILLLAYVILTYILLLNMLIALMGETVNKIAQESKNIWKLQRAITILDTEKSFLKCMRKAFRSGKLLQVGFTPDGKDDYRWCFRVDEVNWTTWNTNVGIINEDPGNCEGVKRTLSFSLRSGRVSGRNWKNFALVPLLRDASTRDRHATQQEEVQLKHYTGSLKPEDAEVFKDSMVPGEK"},
  "source": "patent US11274073B2",
  "about": "“TRPV1 modulator compounds” (ANTALGENICS, S.L., priority 2017, dated 2022)",
  "molecular_target": "rat TRPV1 channel (Rattus norvegicus, UniProt O35433)",
  "test": "Calcium microfluorometry assay on TRPV1-SH-SY5Y cells, single concentration 10 μM",
  "assay_type": "cell-based",
  "details": "compound 10 μM before stimulation with 10 μM capsaicin, RR (10 μM Ruthenium Red) = 100%",
  "data": [
    {"molecule": "COc1cc(CNC(=O)COC(=O)/C=C(\\C)CCC=C(C)C)c(I)cc1O", "values": [
      {"measurement": "TRPV1 blockage at 10 μM (% ± SD)", "result": "77.28 ± 11.85", "unit": "%"}
    ]}
  ]
}
